Legend:
[1] = biological target: T1, 5-hydroxytryptamine receptor 2A (Homo sapiens, UniProt P28223); assay: Agonist activity at 5-HT2A receptor (unknown origin) expressed in HEK293 cells assessed as [3H]inositol phosphate accumulation after 2 hrs by scintillation counting; type: cell-based
[2] = biological target: T1, 5-hydroxytryptamine receptor 2A; assay: Displacement of [125I]DOI from recombinant human 5-HT2A receptor expressed in HEK293 cell membranes after 1 hr by scintillation counting
[3] = biological target: T2, 5-hydroxytryptamine receptor 2C (Homo sapiens, UniProt P28335); assay: Agonist activity at unedited 5-HT2C receptor (unknown origin) expressed in HEK293 cells assessed as [3H]inositol phosphate accumulation after 2 hrs by scintillation counting; type: functional, cell-based
[4] = biological target: 5-hydroxytryptamine receptor 2B (Homo sapiens, UniProt P41595); assay: Displacement of [125I]DOI from recombinant human 5-HT2B receptor expressed in HEK293 cell membranes after 1 hr by scintillation counting
[5] = biological target: T2, 5-hydroxytryptamine receptor 2C; assay: Displacement of [125I]DOI from recombinant human 5-HT2C receptor expressed in HEK293 cell membranes after 1 hr by scintillation counting

By UniProt entry, the sequences of proteins in these tests, tags left out. Where a name states a change or a piece, a line headed by the entry shows the natural chain unless it says otherwise.
UniProt P28223, whole entry: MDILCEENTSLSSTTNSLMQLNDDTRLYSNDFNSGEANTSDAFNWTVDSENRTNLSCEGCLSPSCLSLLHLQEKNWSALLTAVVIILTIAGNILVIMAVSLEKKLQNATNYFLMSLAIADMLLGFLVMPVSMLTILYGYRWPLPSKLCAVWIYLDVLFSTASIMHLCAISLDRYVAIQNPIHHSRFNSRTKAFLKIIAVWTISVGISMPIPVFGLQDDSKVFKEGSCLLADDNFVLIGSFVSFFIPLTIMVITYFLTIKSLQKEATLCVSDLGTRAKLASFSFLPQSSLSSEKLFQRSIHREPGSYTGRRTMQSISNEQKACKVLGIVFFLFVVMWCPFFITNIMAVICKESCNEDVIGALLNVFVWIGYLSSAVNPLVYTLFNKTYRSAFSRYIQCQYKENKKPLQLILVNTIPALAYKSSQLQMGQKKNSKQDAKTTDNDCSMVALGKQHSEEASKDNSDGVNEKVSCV
UniProt P28335: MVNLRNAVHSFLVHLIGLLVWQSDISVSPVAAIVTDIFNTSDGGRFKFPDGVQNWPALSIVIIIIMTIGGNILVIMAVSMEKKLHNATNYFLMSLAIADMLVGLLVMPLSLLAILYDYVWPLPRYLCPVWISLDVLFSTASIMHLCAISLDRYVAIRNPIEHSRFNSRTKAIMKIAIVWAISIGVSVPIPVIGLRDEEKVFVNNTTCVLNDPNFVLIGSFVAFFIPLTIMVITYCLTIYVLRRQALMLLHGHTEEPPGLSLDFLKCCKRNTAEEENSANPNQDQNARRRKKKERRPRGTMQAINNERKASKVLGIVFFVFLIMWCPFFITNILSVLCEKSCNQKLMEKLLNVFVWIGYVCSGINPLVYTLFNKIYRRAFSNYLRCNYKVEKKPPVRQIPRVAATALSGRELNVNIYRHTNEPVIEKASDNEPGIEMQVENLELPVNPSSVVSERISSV
UniProt P41595, whole entry: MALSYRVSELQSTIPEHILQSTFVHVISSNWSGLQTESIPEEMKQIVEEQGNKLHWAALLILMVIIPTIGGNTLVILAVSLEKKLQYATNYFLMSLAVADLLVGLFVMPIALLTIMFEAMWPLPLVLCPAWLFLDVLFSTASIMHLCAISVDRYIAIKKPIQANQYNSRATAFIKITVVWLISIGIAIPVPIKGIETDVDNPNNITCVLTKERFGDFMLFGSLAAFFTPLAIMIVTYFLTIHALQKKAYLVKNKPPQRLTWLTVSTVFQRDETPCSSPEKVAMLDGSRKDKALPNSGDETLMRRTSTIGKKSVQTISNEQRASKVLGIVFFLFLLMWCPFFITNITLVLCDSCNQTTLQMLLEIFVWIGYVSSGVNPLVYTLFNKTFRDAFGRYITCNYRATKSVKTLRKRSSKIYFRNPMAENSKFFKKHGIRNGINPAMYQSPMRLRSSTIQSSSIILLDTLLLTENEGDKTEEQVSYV

## Clc1cccc(N2CCNCC2)c1 [CHLOROPHENYLPIPERAZINE]
[1]
  EC50: 0.251 µM
[2]
  Ki: 0.0251 µM
[3]
  EC50: 0.0126 µM
[4]
  Ki: 0.01 µM
[5]
  Ki: 0.00794 µM
